For the data set the following is noted: 25 mg in 0.5% tetradecyl-beta-D-maltoside (Intravail A3), oral and rectal.

Molecules are shown by their SMILES.

`CNS(=O)(=O)Cc1ccc2[nH]cc(CCN(C)C)c2c1` [sumatriptan]: the “Cmax compared to currently available 25 mg oral tablets, in words” value is “increases Cmax”.
